Values quoted from earlier work, collected in patent US11304902B2, “Pharmaceutical compositions, preparation and uses thereof” (CURADIGM SAS, priority 2014, dated 2022).
“Also recorded” adds a separate entry of the source.

Amino acid sequences for entries named in this document (tags omitted).
UniProt P08684, whole entry: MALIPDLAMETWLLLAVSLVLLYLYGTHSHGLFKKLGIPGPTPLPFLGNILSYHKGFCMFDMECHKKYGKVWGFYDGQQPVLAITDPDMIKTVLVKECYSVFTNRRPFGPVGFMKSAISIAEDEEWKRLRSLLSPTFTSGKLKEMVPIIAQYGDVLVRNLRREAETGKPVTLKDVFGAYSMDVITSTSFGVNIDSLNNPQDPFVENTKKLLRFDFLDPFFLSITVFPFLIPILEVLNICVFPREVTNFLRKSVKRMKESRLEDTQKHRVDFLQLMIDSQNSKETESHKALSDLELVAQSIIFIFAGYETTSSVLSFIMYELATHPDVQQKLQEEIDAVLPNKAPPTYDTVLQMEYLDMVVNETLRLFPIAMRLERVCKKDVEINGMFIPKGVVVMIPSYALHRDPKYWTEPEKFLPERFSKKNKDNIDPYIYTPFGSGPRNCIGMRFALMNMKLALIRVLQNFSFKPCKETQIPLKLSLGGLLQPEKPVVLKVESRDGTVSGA

Target: CYP3A4 (Homo sapiens, UniProt P08684)
Conditions: human CYP enzyme

Compound: O=C1Nc2ccc(Cl)cc2[C@@](C#CC2CC2)(C(F)(F)F)O1 [Efavirenz, efavirenz]
- role towards CYP3A4 (substrate / inhibitor / inducer): Substrate; also recorded: Inducer; also recorded: Inhibitor
